Consider one compound from patent US20220151962A1, “NOVEL INHIBITORS OF HISTONE DEACETYLASE 10” (Deutsches Krebsforschungszentrum, priority 2019, published 2022).

Amino acid sequences for entries named in this document (tags omitted). A change or cut given only in a name is not applied to a line headed by its entry.
UniProt O15379: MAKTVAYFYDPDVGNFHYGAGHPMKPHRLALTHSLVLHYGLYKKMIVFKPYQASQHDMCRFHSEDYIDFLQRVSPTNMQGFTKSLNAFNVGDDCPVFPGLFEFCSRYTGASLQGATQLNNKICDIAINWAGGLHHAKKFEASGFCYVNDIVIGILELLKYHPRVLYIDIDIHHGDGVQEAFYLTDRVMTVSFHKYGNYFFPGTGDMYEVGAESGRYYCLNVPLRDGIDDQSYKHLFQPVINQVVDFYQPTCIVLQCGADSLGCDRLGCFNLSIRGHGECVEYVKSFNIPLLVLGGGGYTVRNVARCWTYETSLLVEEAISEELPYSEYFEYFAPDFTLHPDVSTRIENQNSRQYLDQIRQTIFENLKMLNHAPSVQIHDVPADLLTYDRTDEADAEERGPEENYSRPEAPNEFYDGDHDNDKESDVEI

In test [1] the target is T1, HDAC3/NcoR2 complex (Homo sapiens, UniProt O15379).
T1 construct: purchased BPS Bioscience 50003
Kind of test: HDAC-Glo I/II assay, HDAC3/NcoR2 complex. Format: biochemical. Conditions: recombinant human HDAC3/NcoR2 complex, read-out: pIC50 HDAC3 Glo (converted).

Test [2] deals with T2, HDAC10-nanoluciferase fusion in HeLa cells (Homo sapiens, UniProt Q969S8).
T2 sequence (Q969S8 1-669): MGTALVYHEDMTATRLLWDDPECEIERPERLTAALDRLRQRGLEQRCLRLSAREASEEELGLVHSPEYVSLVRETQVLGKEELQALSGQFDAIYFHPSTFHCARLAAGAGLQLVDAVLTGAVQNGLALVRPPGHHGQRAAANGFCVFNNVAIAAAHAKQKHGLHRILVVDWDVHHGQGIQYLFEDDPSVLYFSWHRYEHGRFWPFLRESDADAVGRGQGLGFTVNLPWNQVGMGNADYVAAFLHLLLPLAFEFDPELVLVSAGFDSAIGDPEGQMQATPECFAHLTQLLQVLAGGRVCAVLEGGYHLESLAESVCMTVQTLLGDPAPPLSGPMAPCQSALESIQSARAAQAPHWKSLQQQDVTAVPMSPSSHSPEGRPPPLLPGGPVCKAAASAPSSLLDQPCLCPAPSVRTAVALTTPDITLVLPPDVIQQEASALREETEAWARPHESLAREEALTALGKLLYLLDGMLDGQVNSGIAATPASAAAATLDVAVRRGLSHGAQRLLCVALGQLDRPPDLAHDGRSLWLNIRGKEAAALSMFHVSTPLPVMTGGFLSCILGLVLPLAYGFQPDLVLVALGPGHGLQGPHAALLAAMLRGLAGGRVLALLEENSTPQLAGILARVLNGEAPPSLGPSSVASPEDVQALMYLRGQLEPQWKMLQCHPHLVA
Kind of test: BRET intracellular target engagement assay, HDAC10.

In test [3] the target is T3, TwinStrep-GST-HDAC10 (Homo sapiens, UniProt Q969S8).
T3 construct: made in house; host or cells: Sf21 insect cells (baculovirus, pFastBac1)
T3 sequence (Q969S8 1-669): T2 sequence (Q969S8 1-669)
The test can be described thus: HDAC10 TR-FRET assay (Tubastatin-AF647-Tracer displacement). The conditions noted are these: 60 min at rt, read-out: pIC50 HDAC10 FRET (converted). Format: binding. A general note: TR-FRET usually uses a lanthanide donor and a delayed reading to cut background.

Regarding `CN(CCCC(=O)NO)CCNC(=O)c1c2ccccc2cc2ccccc12` [DKFZ-771, N-(2-((4-(Hydroxyamino)-4-oxobutyl)(methyl)amino)ethyl)anthracene-9-carboxamide], the IC50 in test [1] was roughly 25100 nM; in test [2], 12.6 nM; in test [3] it was 2.51 nM. Also, the “HDAC10/6 fold selectivity (BRET)” value in test [2] (HDAC10 over HDAC6, from BRET) worked out at 316 fold.
